Results from US7268224B2, “Human glucocorticoid receptor 1A promoter and splice variants” (Board of Supervisors of Louisianna State University and …, priority 2000, dated 2007).

System: IRF-1 and IRF-2 protein levels in Jurkat cells
Assay: IRF protein levels in interferon-treated Jurkat cells
Format: cell-based, human
Conditions: data not shown
Excerpt: The sequence of the 1A promoter and exon and identification of the transcription factors that bind to it will lead to new treatments. By identifying transcription factor binding sites in the 1A promoter and exon, we will determine whether activation of any of these factors will directly activate the hGR 1A promoter. For example, if the interferon regulatory factor element (IRF-E) that we have discovered is functional in activating the hGR 1A promoter, it may be possible to combine interferon therapy with corticosteroids to improve the lymphoblast kill rate by super-inducing GR expression. […] See H. Harada et al., “Structurally Similar but Functionally Distinct Factors, IRF-1 and IRF-2, Bind to the Same Regulatory Elements of IFN and IFN-Inducible Genes,” Cell, vol. 58, pp. 729-739 (1989). Thus, treatment of CEM-C7 cells (or of human patients) with an interferon may increase intracellular IRF-1, which could then stimulate the transcription of exon 1A G transcripts in the lymphoblast cells. This would make these cells more sensitive to the killing effects of glucocorticoids, thus resulting in an improved therapy and patient response.

B1: interferon-β: interferon used to treat Jurkat cells (protein, UniProt P01574 22-187, looked up)
Interferon beta: MSYNLLGFLQRSSNFQCQKLLWQLNGRLEYCLKDRMNFDIPEEIKQLQQFQKEDAALTIYEMLQNIFAIFRQDSSSTGWNETIVENLLANVYHQINHLKTVLEEKLEKEDFTRGKLMSSLHLKRYYGRILHYLKAKEYSHCAWTIVRVEILRNFYFINRLTGYLRN
Question: Which results are given for B1?
Answer: IRF-1 protein levels: dramatic increase; IRF-2 protein levels: not IRF-2
